Each structure is given as a SMILES string. Where a SMILES comes first, the peptide text is derived from it.

The assay deals with S. Typhimurium. The experiment in a line: Bactericidal activity assay (colony counting). As to conditions: synthetic PBD-2, 50 μg/ml, heat-treated 56°C 20 min; 5000 CFU; 10 mM phosphate pH 7.0 with 1/100 TSB; 1 h, 37°C.

Turning to `CC[C@H](C)[C@H](NC(=O)[C@@H]1CSSC[C@@H]2NC(=O)[C@@H]3CCCN3C(=O)[C@H](CO)NC(=O)[C@H](Cc3ccccc3)NC(=O)[C@H](CC(N)=O)NC(=O)[C@@H]3CSSC[C@H](NC(=O)[C@H]([C@@H](C)O)NC(=O)CNC(=O)[C@H](CCC(=O)O)NC(=O)[C@H]([C@@H](C)CC)NC(=O)[C@H](CCCNC(=N)N)NC(=O)[C@H](CC(N)=O)NC(=O)[C@H](Cc4ccccc4)NC(=O)[C@H](CC(C)C)NC(=O)[C@@H]4CCCN4C2=O)C(=O)N[C@@H](Cc2ccc(O)cc2)C(=O)N[C@@H](CO)C(=O)NCC(=O)N[C@@H](CCCCN)C(=O)N[C@@H](C)C(=O)N[C@@H](CCCCN)C(=O)N[C@@H](CSSC[C@H](NC(=O)[C@@H](NC(=O)[C@H](Cc2ccc(O)cc2)NC(=O)[C@H](Cc2c[nH]cn2)NC(=O)[C@@H](N)CC(=O)O)[C@@H](C)CC)C(=O)N[C@@H](C)C(=O)N[C@@H](CCCCN)C(=O)N[C@@H](CCCCN)C(=O)NCC(=O)NCC(=O)N[C@@H]([C@@H](C)O)C(=O)N3)C(=O)N1)C(=O)N[C@@H](CCCNC(=N)N)C(=O)O` [PBD-2, Porcine beta-defensin 2] (HELM PEPTIDE1{D.H.Y.I.C.A.K.K.G.G.T.C.N.F.S.P.C.P.L.F.N.R.I.E.G.T.C.Y.S.G.K.A.K.C.C.I.R}$PEPTIDE1,PEPTIDE1,5:R3-34:R3|PEPTIDE1,PEPTIDE1,12:R3-27:R3|PEPTIDE1,PEPTIDE1,17:R3-35:R3$$$V2.0; N-terminus and C-terminus assumed), the bacterial killing effect entry is listed as “elicited a bacterial killing effect against S. Typhimurium”.

(Values after paper PMC6657668, “Porcine Beta-Defensin 2 Provides Protection Against Bacterial Infection by a Direct Bactericidal Activity and Alleviates Inflammation via Interference With the TLR4/NF-κB Pathway” (Frontiers in Immunology, 2019).)
